From PubChem BioAssay AID434979 (Johns Hopkins Ion Channel Center, 2010)
Only a part is listed here, and it is no random draw. Calls of active or inactive are those of the source.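 The calls were made as follows: active = signal rise over 3 SD above mean of control wells given weak agonist, in both repeats and first screen; inactive = the rest.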

These molecules were tested on TRPC4 (mouse), co-expressed with 5HT1a in HEK293 (assay: calcium flux potentiators in TRPC4/5HT1a cells, confirmation, counter-screen for TRPC4 potentiator project, cell-based, second counter screen, HEK293 TRPC4/5HT1a, Fluo-4 (AID 434979)). Details: Fluo-4 calcium flux, at 10 µM, stronger effect = higher value, serotonin added at its EC20 dose.
For `CN(C)C1(CNC(=O)c2ccc(Cl)c(S(N)(=O)=O)c2)CCCCC1`, the potentiation was inactive: 0%.
